Results reported in PubChem BioAssay (Tox21).
Values joined by “and” are separate entries in the source; they are usually repeats but may differ in a detail not shown here. Equal values may be shown once. This is a selection; strong and weak results do not stand in their true shares. Inconclusive results are not listed. A structure can be active in one record and inactive in another. Active and inactive are the calls of the source. Unless noted, calls follow the shape of the dose curve; as a rule, active = well fitted curve in the direction sought with a large enough effect in the repeat runs; inconclusive = weak or mixed curves; inactive = no such curve, though single readings can be large; an effect the other way counts as inactive or inconclusive.

Chains of the proteins cited; added tags and fusions are not shown.
UniProt P11511, whole entry: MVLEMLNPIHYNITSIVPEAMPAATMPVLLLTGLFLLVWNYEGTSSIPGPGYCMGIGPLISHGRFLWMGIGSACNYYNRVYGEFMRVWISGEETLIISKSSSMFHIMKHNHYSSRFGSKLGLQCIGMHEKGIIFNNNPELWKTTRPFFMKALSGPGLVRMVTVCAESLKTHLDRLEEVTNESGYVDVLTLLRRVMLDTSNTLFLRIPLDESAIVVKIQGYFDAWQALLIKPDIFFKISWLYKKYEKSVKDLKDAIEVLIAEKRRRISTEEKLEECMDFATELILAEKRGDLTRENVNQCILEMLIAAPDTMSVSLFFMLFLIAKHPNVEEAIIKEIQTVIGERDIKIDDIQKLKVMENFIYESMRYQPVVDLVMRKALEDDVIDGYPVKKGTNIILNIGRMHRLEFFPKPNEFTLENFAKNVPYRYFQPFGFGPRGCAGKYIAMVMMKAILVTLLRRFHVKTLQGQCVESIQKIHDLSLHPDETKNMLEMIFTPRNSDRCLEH
UniProt P35869, whole entry: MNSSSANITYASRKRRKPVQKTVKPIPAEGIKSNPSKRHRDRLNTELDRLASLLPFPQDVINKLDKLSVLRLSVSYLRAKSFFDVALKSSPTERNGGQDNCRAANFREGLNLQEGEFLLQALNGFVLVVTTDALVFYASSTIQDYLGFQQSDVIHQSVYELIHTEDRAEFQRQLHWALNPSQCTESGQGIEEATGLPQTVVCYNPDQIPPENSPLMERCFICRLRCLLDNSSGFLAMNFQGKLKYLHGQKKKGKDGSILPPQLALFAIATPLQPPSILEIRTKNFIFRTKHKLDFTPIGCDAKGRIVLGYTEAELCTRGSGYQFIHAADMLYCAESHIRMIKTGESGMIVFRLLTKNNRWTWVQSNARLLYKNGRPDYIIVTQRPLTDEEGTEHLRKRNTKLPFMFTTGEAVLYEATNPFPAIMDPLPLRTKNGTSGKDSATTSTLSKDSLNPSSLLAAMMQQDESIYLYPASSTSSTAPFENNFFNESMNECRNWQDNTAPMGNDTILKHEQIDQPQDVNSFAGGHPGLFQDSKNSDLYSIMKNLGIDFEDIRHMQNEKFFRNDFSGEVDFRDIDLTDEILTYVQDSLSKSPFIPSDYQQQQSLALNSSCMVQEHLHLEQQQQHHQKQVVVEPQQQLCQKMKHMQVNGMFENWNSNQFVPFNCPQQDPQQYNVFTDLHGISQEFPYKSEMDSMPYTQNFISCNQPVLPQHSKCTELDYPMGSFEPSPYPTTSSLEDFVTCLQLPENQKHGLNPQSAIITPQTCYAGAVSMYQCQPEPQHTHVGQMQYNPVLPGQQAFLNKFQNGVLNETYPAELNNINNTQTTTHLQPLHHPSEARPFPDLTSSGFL
UniProt P37231, whole entry: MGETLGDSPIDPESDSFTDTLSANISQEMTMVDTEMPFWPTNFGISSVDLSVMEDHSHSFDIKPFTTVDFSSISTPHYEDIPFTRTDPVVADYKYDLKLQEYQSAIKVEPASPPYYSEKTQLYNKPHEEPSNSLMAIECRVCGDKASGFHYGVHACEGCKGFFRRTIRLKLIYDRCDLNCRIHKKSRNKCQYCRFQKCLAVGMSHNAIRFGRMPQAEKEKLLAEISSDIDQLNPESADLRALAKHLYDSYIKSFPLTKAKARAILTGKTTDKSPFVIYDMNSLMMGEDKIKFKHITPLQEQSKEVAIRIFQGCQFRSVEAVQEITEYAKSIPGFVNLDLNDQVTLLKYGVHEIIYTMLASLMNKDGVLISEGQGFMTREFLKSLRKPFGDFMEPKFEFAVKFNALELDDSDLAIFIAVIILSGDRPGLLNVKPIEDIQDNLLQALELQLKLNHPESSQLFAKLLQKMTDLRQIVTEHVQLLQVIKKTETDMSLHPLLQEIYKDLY
UniProt P03372, whole entry: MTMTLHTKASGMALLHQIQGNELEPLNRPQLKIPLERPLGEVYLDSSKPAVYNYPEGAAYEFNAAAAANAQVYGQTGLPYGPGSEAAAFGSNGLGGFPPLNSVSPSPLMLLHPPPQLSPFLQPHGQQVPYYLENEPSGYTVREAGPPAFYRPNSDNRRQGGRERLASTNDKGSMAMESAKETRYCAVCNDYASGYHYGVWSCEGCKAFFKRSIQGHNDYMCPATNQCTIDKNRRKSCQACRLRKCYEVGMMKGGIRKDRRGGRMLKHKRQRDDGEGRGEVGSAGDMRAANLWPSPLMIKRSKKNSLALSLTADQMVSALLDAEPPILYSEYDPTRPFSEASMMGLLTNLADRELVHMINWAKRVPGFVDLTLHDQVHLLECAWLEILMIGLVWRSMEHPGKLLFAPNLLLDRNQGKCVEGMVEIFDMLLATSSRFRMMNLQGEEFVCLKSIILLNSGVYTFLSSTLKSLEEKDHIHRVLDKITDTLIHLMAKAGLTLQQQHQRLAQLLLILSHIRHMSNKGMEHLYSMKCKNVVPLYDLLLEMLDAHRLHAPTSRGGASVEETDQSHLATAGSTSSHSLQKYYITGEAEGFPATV

What was measured:
[1] = qHTS assay for identifying genotoxic compounds that show differential cytotoxicity against isogenic chicken DT40 cell lines with known DNA damage response pathways - Rad54/Ku70 mutant cell line (AID 743015); also: nearly all actives have a fitted effect of over 60% in size; also: potency is read from the fitted curve at half-maximal effect
[2] = qHTS assay to identify small molecule antagonists of the androgen receptor (AR) signaling pathway using the MDA cell line - cell viability counter screen (AID 743041; also: nearly all actives have a fitted effect of over 45% in size); details: MDA-kb2 viability, CellTiter-Fluor, 16 h, cells co-treated with R1881 androgen agonist
How it was run: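 Cytotoxicity counter screen: MDA-kb2 AR-luc cells, compound + R1881, 16 h, 37C, 0% CO2; CellTiter-Fluor added at 15.5 h, fluorescence read after 30 min.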

[3] = qHTS assay to identify small molecule antagonists of the thyroid receptor (TR) signaling pathway - cell viability counter screen (AID 743064); also: nearly all actives have a fitted effect of over 50% in size
How it was run: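 Rat GH3 pituitary tumor cells stably expressing two TR response elements driving luciferase were plated, rested 4 h, then dosed with library compounds and T3 (1 nM final). After 23.5 h at 37 °C, CellTiter-Fluor was added for 30 min and fluorescence recorded.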

[4] = qHTS assay to identify small molecule antagonists of the thyroid receptor (TR) signaling pathway (AID 743065); also: nearly all actives have a fitted effect of over 55% in size
How it was run: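 GH3.TRE-Luc rat pituitary cells (two TREs driving luciferase) were dosed with compound, then stimulated with 1 nM T3 (final) for 23.5 h at 37 C. ONE-Glo luminescence was the read-out, with CellTiter-Fluor fluorescence as the cytotoxicity counter-screen.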

[5] = test system: thyroid hormone receptor (rat, GH3 cells); assay: qHTS assay to identify small molecule agonists of the thyroid receptor (TR) signaling pathway (AID 743066; calls by dose curve); details: GH3.TRE-Luc cells, TR agonist luciferase, 24 h
[6] = qHTS assay to identify small molecule antagonists of the estrogen receptor alpha (ER-alpha) signaling pathway - cell viability counter screen (AID 743074; calls by dose curve;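 also: HEK293 cells carrying ER-alpha-UAS-bla reporter stimulated with 17beta-estradiol; nearly all actives have a fitted effect of over 45% in size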); details: ERalpha-bla HEK293 viability, CellTiter-Glo luminescence, 18 h
[7] = qHTS assay to identify small molecule antagonists of the estrogen receptor alpha (ER-alpha) signaling pathway using the BG1 cell line - cell viability counter screen (AID 743081);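 also: compound given together with 17beta-estradiol as the ER stimulus; nearly all actives have a fitted effect of over 45% in size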
Aromatase (Homo sapiens) = Aromatase (Homo sapiens) (UniProt P11511); assay: qHTS assay to identify aromatase inhibitors (AID 743083); details: MCF-7 aro ERE, testosterone-driven ERE luciferase, 24 h; also: nearly all actives have a fitted effect of over 55% in size
[8] = qHTS assay to identify aromatase inhibitors - cell viability counter screen (AID 743084); details: MCF-7 aro ERE viability, CellTiter-Fluor, 24 h;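 also: cells stimulated with testosterone during compound exposure; nearly all actives have a fitted effect of over 55% in size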
[9] = target: Aryl hydrocarbon receptor (Homo sapiens) (UniProt P35869); assay: qHTS assay to identify small molecule that activate the aryl hydrocarbon receptor (AhR) signaling pathway (AID 743085);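 also: HG2L7.5c1 human HepG2 liver cells with stably integrated DRE-driven firefly reporter; nearly all actives have a fitted effect of over 15% in size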
[10] = qHTS assay to identify small molecule that activate the aryl hydrocarbon receptor (AhR) signaling pathway - cell viability counter screen (AID 743086);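 also: HepG2 liver cells carrying the AhR DRE luciferase reporter; nearly all actives have a fitted effect of over 45% in size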
How it was run: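 HepG2-AhR-luc (HG2L7.5c1) cells, 4000/well, treated 24 h at 37 C with compound; viability measured as CellTiter-Fluor fluorescence after 30 min in the same wells as the luciferase read.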

[11] = target: Peroxisome proliferator-activated receptor gamma (Homo sapiens) (UniProt P37231); assay: qHTS assay to identify small molecule agonists of the peroxisome proliferator-activated receptor gamma (PPARg) signaling pathway (AID 743094; active = well fitted activation curve with a large enough effect in the signal ratio in the repeat runs, not every such curve was filed as active; the % refers to the signal ratio); details: HEK293H PPARg-UAS-bla, beta-lactamase FRET ratio, 17 h
How it was run: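 Agonism was assessed in a beta-lactamase reporter system, HEK293H cells with a stably integrated UAS-bla construct under PPARg control; the 17 h treatment at 37C preceded a 1 h room-temperature FRET substrate read.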

[12] = qHTS assay to identify small molecule antagonists of the peroxisome proliferator-activated receptor gamma (PPARg) signaling pathway - cell viability counter screen (AID 743194); details: PPARg-bla HEK293H viability, CellTiter-Glo luminescence, 17 h, co-treated with 50 nM rosiglitazone; also: nearly all actives have a fitted effect of over 55% in size
How it was run: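 Cytotoxicity counter screen in PPARg-bla HEK293H cells, same wells as reporter assay. Compounds plus 50 nM rosiglitazone (final) for 17 h at 37 C, then viability read by CellTiter-Glo luminescence.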

[13] = target: Estrogen receptor (Homo sapiens) (UniProt P03372); assay: qHTS assay to identify small molecule antagonists of the estrogen receptor alpha (ER-alpha) signaling pathway (AID 743069; active = well fitted curve in the direction sought with a large enough effect in the signal ratio in the repeat runs, not every such curve was filed as active; the % refers to the signal ratio); details: HEK293 ER-alpha-UAS-bla, beta-lactamase ratio, antagonist mode
How it was run: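 Beta-lactamase FRET fluorescence is read after 2 hr at room temperature with LiveBLAzer B/G substrate. Before that, ER-alpha-bla HEK293 cells sit 4 hr after plating, then receive compound plus 17beta-estradiol and incubate 18 hr at 37C.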

[14] = target: Estrogen receptor (Homo sapiens) (UniProt P03372); assay: qHTS assay to identify small molecule agonists of the estrogen receptor alpha (ER-alpha) signaling pathway (AID 743075; calls by dose curve;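 also: HEK293 GripTite cells with ER-alpha and UAS-driven beta-lactamase reporter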); details: HEK293 ER-alpha-UAS-bla, beta-lactamase FRET ratio, 18 h
[15] = target: Estrogen receptor (Homo sapiens) (UniProt P03372); assay: qHTS assay to identify small molecule agonists of the estrogen receptor alpha (ER-alpha) signaling pathway using the BG1 cell line (AID 743079); also: nearly all actives have a fitted effect of over 20% in size
% is scaled to controls: 0 for no effect and ±100 for the full control effect.

OCCSCCO
inactive: Potency [1] | viability change, negative = cytotoxic ([2]; at 70.3 µM (top of the series)) -8.39% | viability change, negative = cytotoxic ([2]; at 95 µM (top of the series)) 26.7% | Potency [3] | Potency [4] | activation ([5]; at 83.9 µM (top of the series)) 0.821% | activation ([5]; at 95.2 µM (top of the series)) 0.948% | activity, negative = cytotoxicity ([6]; at 69.4 µM (top of the series)) 10.6% | activity, negative = cytotoxicity ([6]; at 79.1 µM (top of the series)) -12.6% | Potency [7] | activity, negative = inhibition (Aromatase (Homo sapiens); at 70.3 µM (top of the series)) 8.5% | activity, negative = inhibition (Aromatase (Homo sapiens); at 95 µM (top of the series)) 27.9% | activity change, negative = cytotoxicity ([8]; at 70.3 µM (top of the series)) -4.49% | activity change, negative = cytotoxicity ([8]; at 95 µM (top of the series)) -1.37% | Potency [9] | Potency [10] | activation ([11]; at 57 µM (top of the series)) -0.353% | activation ([11]; at 78.9 µM (top of the series)) -0.166% | activity change, negative = cytotoxicity ([12]; at 62.6 µM (top of the series)) 5.56% | activity change, negative = cytotoxicity ([12]; at 81.1 µM (top of the series)) -11.6%

O=[N+]([O-])c1cccc([N+](=O)[O-])c1
inactive: viability change, negative = cytotoxic ([2]; at 70.3 µM (top of the series)) 5.36% | viability change, negative = cytotoxic ([2]; at 95 µM (top of the series)) -34.4% | Potency [3] | Potency [4] | activation ([5]; at 83.9 µM (top of the series)) -0.897% | activation ([5]; at 95.2 µM (top of the series)) -4.79% | activity, negative = inhibition ([13]; at 69.4 µM (top of the series)) -3.72% | activity, negative = inhibition ([13]; at 79.1 µM (top of the series)) -7.21% | activity, negative = cytotoxicity ([6]; at 69.4 µM (top of the series)) -11.3% | activation ([14]; at 70.1 µM (top of the series)) 0.415% | activation ([14]; at 79.1 µM (top of the series)) -0.676% | Potency [15] | Potency [7] | activity, negative = inhibition (Aromatase (Homo sapiens); at 70.3 µM (top of the series)) 9.37% | activity, negative = inhibition (Aromatase (Homo sapiens); at 95 µM (top of the series)) 26.6% | activity change, negative = cytotoxicity ([8]; at 70.3 µM (top of the series)) 12.4% | Potency [10] | activation ([11]; at 57 µM (top of the series)) 4.05% | activation ([11]; at 78.9 µM (top of the series)) -9.15%
inactive and 71.5 µM (active): Potency [1]

Cc1ccc([N+](=O)[O-])cc1[N+](=O)[O-]
inactive: Potency [1] | viability change, negative = cytotoxic ([2]; at 70.3 µM (top of the series)) -5.17% and 3.6% | Potency [3] | Potency [4] | activation ([5]; at 83.9 µM (top of the series)) -0.114% and 6.21% | activity, negative = inhibition ([13]; at 69.4 µM (top of the series)) 8.59% and -23% | activity, negative = cytotoxicity ([6]; at 69.4 µM (top of the series)) -18.4% and 8.45% | Potency [15] | Potency [7] | activity, negative = inhibition (Aromatase (Homo sapiens); at 70.3 µM (top of the series)) 1.49% and 10.8% | activity change, negative = cytotoxicity ([8]; at 70.3 µM (top of the series)) -2.88% and 22.9% | Potency [9] | Potency [10] | activation ([11]; at 57 µM (top of the series)) 0.493% and -0.0352% | activity change, negative = cytotoxicity ([12]; at 62.6 µM (top of the series)) 31.3% and 4.93%

COP(C)(=O)OC
inactive: Potency [1] | viability change, negative = cytotoxic ([2]; at 70.3 µM (top of the series)) -0.765% | viability change, negative = cytotoxic ([2]; at 95 µM (top of the series)) 4.78% | Potency [3] | Potency [4] | activation ([5]; at 83.9 µM (top of the series)) 0.221% | activation ([5]; at 95.2 µM (top of the series)) -0.253% | activity, negative = inhibition ([13]; at 69.4 µM (top of the series)) 26.7% | activity, negative = inhibition ([13]; at 79.1 µM (top of the series)) -3.85% | activity, negative = cytotoxicity ([6]; at 79.1 µM (top of the series)) -3.94% | activation ([14]; at 70.1 µM (top of the series)) -1.63% | activation ([14]; at 79.1 µM (top of the series)) -1.63% | Potency [15] | Potency [7] | activity, negative = inhibition (Aromatase (Homo sapiens); at 70.3 µM (top of the series)) 17.8% | activity, negative = inhibition (Aromatase (Homo sapiens); at 95 µM (top of the series)) -0.0809% | activity change, negative = cytotoxicity ([8]; at 70.3 µM (top of the series)) 23.2% | activity change, negative = cytotoxicity ([8]; at 95 µM (top of the series)) 4.59% | Potency [9] | Potency [10] | activation ([11]; at 57 µM (top of the series)) -1.07% | activation ([11]; at 78.9 µM (top of the series)) 1.63% | activity change, negative = cytotoxicity ([12]; at 62.6 µM (top of the series)) 12.8% | activity change, negative = cytotoxicity ([12]; at 81.1 µM (top of the series)) 1.67%

Cc1c([N+](=O)[O-])cccc1[N+](=O)[O-]
inactive: Potency [1] | viability change, negative = cytotoxic ([2]; at 70.3 µM (top of the series)) 5.93% and 0.962% | Potency [3] | Potency [4] | activation ([5]; at 83.9 µM (top of the series)) -4.77% and 3.36% | activity, negative = cytotoxicity ([6]; at 69.4 µM (top of the series)) 7.56% | Potency [7] | activity, negative = inhibition (Aromatase (Homo sapiens); at 70.3 µM (top of the series)) 2.02% and -5.63% | activity change, negative = cytotoxicity ([8]; at 70.3 µM (top of the series)) -0.135% and -5.67% | Potency [9] | Potency [10] | activation ([11]; at 57 µM (top of the series)) -0.574% and -2.56% | activity change, negative = cytotoxicity ([12]; at 62.6 µM (top of the series)) 21% and 14.3%
